Data reported in US20100137391A1, “Histamine H3 Agonist for use as Therapeutic Agent for a Lipid/Glucose Metabolic Disorder” (priority 2005, published 2010).

Test system: wild type mice
Details: Imetit twice a day; FIGS. 5 and 7
From the text: Histamine H3 receptor knockout mice (hereinafter referred to as “H3RKO mice”) were produced by the method of Takahashi et al. (J. Clin. Invest, Vol. 110, p. 1791, 2002). The obtained knockout mice were subjected to back crossing with C57BL/6J over 5 generations. Six- to nine-month-old male litters were used in an acute drug administration test. On the other hand, 18- to 20-month-old mice whose parents were H3RKO mice or wild type mice (N5 of C57BL/6J) were used in a chronic drug administration test.
All mice were individually bred at 25° C., and light and dark were controlled every 12 hours. During breeding, water and feed were freely given to the mice. […]
Mice were divided into groups, depending on mean body weight and the amount of daily food intake before administration of the compound. The body weight and the amount of food intake were measured every day.
In the test using Thioperamide, mice were divided into 4 groups: a group in which a solvent was administered to C57BL/6J DiO mice at 9:00; a group in which 10 mpk Thioperamide was administered thereto at 9:00; a group in which a solvent was administered to C57BL/6J DiO mice at 17:00; and a group in which 10 mpk Thioperamide was administered thereto at 17:00. […] Thereafter, blood was collected from the orbit of each mouse, and the glucose and insulin levels were measured. […]

Structure (SMILES): N=C(N)SCCc1c[nH]cn1 [Imetit, carbamimidothioic acid 2-(1H-imidazol-4-yl)ethyl ester]
- body weight of fat mice: significantly decreased
